{
  "source": "patent US20230381237A1",
  "about": "“CHIMERIC ANTIGEN RECEPTOR (CAR) T-CELL ADJUVANT THERAPIES” (priority 2022, published 2023)",
  "assay": "Example 2: mouse model of CAR T-cell therapy induced CRS",
  "settings": "IP, BID for 7 days, start 5 hours prior to CAR-T cell transfer",
  "data": [
    {"compound": "CC#CC[C@H](C)[C@H](O)/C=C/[C@@H]1[C@H]2c3cccc(CCCC(=O)[O-])c3O[C@H]2C[C@H]1O.[Na+]", "note": "[CTO1681, (+)-[1R, 2R, 3aS, 8bS]-2,3,3a,8b-tetrahydro-2-hydroxy-1-[(E)-(3S,4S)-3-hydroxy-4-methyl-1-octen-6-ynyl)-1Hcyclopenta[b]benzofuran-5-butanoic acid, monosodium salt]", "values": [
      {"measurement": "Undesired cytokine production vs control group", "value": "lower undesired cytokine production"}
    ]}
  ]
}
